Assay results published in US11738082B2, “High concentration protein formulations with reduced viscosity” (Bhami's Research Laboratory, Pvt. Ltd., priority 2017, dated 2023).

Tested on: Human Gamma Globulin (HGG), GLOBUCEL®
Test: Viscosity of aqueous solutions of Human Gamma Globulin (Cambridge VISCOlab5000 or DV2T cone and plate viscometer)
Details: HGG 297 mg/mL; excipient 10 mg/mL (31 mM); 25 mM histidine buffer pH 6.0; contains 0.04% EDTA, 0.1% octyl glucopyranoside, 50 mM NaCl, 10 mg/mL sorbitol

Caffeine Nicotinate
Viscosity (cP) @ 25° C.: 37 cP
